Consider 2 molecules from PubChem BioAssay AID602141 (Sanford-Burnham Center for Chemical Genomics, 2011).

The entries are a selection whose mix differs from that of the whole data set. Calls of active or inactive are those of the source.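 Rule for the calls: active = corrected activity change at or below -50% at 5 µM; inactive = the rest.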

This experiment in a line: cytotoxicity in KKLEB CF airway cells, primary screen, cytotoxicity control for CF NF-kB inhibitor project, cell-based, uHTS, fluorescence assay plates (AID 602141). The settings on record: KKLEB CF airway cells viability, ATPlite luminescence, overnight; at 5 µM; stronger effect = lower value; cells stimulated with P. aeruginosa culture filtrate. Background: In ATP-based viability assays light output follows the ATP content of the culture.
For the molecule `CCC(=O)N(c1ccccc1)C1(COC)CCN(CCn2nnn(CC)c2=O)CC1`, the activity change (cytotoxicity) is inactive: -5.9%.

`CCC(=O)N(c1ccccc1)C1(COC)CCN(CCc2cccs2)CC1`: the activity change (cytotoxicity) was inactive: -4.1%.
